One substance from US8476051B2, “Thermostable alcohol dehydrogenase derived from Thermococcus guaymasensis” (priority 2008, dated 2013) can be followed below.

One series relates to CCC(C)O. Nature of the series: purified protein, by the assay type. The following applies: other: co-substrate NADP^+ (0.4 mM); 80.0 °C.
Series [1] has as its system nicotinamide adenine dinucleotide phosphate. Nature of the series: purified protein, by the assay type. To be noted: 80.0 °C.
[2] abbreviates: other: co-substrate 2-butanol (11 mM).
Setting [3] is: other: co-substrate 2-butanone (3 mM).

On to “T. guaymasensis ADH (Thermococcus guaymasensis)”, for which, in the series on CCC(C)O, the Km turned out to be 380 µM, the Vmax was determined as 1250 U mg^−1, the kcat worked out at 833 s⁻¹ and the kcat/Km is recorded as 2,192,000 s^−1M^−1. In series [1] (setting [2]), the Km was determined as 400 µM, the Vmax is 2000 µmol/min/mg, the turnover number (kcat) came out at 1330 s⁻¹ and the kcat/Km is 3.33e+06 M⁻¹ s⁻¹. Also, in series [1] (setting [3]), the Km came to 11 µM, the Vmax is 237 µmol/min/mg, the kcat came to 158 s⁻¹ and the kcat/Km was found to be 1.44e+07 M⁻¹ s⁻¹.
